This experiment deals with T1, human 11β-HSD1 (Homo sapiens, UniProt P28845).
T1 construct: expressed in transfected cells
Put plainly: 11β-HSD1 reductase activity (cortisone to cortisol) in lysates of stably transfected HEK-293 cells. Type of experiment: biochemical. The procedure: Cells were grown in 10 cm dishes to 80% confluence and incubated for 16 h in steroid-free medium (charcoal-treated fetal calf serum (FCS) from HyClone, Logan, Utah). Cells were rinsed once with phosphate-buffered saline (PBS), detached and centrifuged for 3 min at 150×g. The supernatant was removed and the cell pellet quick-frozen in a dry-ice ethanol bath. At the day of experiment, cell pellets were resuspended in buffer TS2 (100 mM NaCl, 1 mM EGTA, 1 mM EDTA, 1 mM MgCl2, 250 mM sucrose, 20 mM Tris-HCl, pH 7.4), sonicated and activities determined immediately. The rate of conversion of cortisol to cortisone or the reverse reaction was determined in 96-well optical PCR reaction plates (Applied Biosystems, Foster City, Calif.) in a final volume of 22 μl, and the tubes were capped during the reaction to avoid evaporation.
Reactions were initiated simultaneously by adding 10 μl of cell lysate and 12 μl of TS2 buffer containing the appropriate concentration of the inhibitory compound to be tested, NADPH, 30 nCi of [1,2,6,7-^3H]-cortisone and unlabeled cortisone, whereby final concentrations were 400 μM NADPH and 100 nM cortisone. Activities were determined immediately after cell disruption by measuring the conversion of radiolabeled cortisone to cortisol for 10 min.
Enzyme kinetics were analyzed by non-linear regression using Data Analysis Toolbox (MDL Information Systems Inc.) assuming first-order rate kinetics. Data represent mean ±SD of four to five independent experiments.
Assay with 20 μM of the corresponding compound in the reaction mixture, added simultaneously with the substrate:
Determination of IC50 values, using 7 different inhibitor concentrations at factor 2 intervals: […]

By UniProt entry, the sequences of proteins in these tests, tags left out. Where a name states a change or a piece, a line headed by the entry shows the natural chain unless it says otherwise.
UniProt P28845: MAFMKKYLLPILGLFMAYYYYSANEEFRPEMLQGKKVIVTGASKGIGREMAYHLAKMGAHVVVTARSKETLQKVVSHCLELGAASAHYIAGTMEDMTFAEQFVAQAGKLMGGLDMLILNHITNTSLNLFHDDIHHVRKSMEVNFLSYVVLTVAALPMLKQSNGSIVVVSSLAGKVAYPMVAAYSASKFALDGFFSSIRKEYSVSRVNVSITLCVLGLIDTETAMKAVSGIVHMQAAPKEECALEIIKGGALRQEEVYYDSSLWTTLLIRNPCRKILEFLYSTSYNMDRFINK

Read-outs that look alike come from different tables or passages of the source.

For the substance “(2S,4aS,6aS,6bR,8aR,10S,12aS,12bR,14bR)-10-Acetoxy-2,4a,6a,6b,9,9,12a-heptamethyl-13-oxo-1,2,3,4,4a,5,6,6a,6b,7,8,8a,9,10,11,12,12a,12b,13,14b-icosahydro-picene-2-carboxylic acid [BNW14]”, the “11β-HSD1 % of control” value is recorded as 20.2%. Further, under “read-out: IC 50 11β-HSD1, Mean”, the IC50 was 2.81 µM. Further, the IC50 (read-out: IC 50 11β-HSD1, determination 1) is 2.75 µM. Moreover, under “read-out: IC 50 11β-HSD1, determination 2”, the IC50 was 3.09 µM. The IC50 (read-out: IC 50 11β-HSD1, determination 3) came out at 2.58 µM.

The record behind these values is patent US20080153791A1, “11Beta -Hydroxysteroid Dehydrogenases” (onpharm GmbH, priority 2005, published 2008).
